# According to PMC7870876:
# Amino acid sequences for entries named in this document (tags omitted).
# UniProt P32851, whole entry: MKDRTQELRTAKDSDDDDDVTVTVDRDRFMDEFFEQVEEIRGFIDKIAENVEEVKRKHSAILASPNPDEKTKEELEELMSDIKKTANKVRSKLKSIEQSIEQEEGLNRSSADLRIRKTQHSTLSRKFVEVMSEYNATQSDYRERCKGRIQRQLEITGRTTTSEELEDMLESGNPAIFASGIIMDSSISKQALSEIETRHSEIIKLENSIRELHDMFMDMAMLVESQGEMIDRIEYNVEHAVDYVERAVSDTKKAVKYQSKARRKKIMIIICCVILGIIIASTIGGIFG
# Some of the results follow.
# Target: Syntaxin-1A (UniProt P32851)
# Assay: cross-link between two proteins; cross-linking mass spectrometry
substance,measurement,value
"Synaptotagmin-1, P21707",listed as a hit,yes
